# Data reported in PMC9706575 (Journal of Medicinal Chemistry, 2022).
# Tested on: MIA PaCa-2 tumor xenograft
# Settings: tail vein, days 1, 4, 8, 11, 15, 18
substance,measurement,setting,value
[PiperazAcAcid-(2-NH2-Phe)-L-A-(2-CF3-Bip)-PD-A-Chg-PFRPG]2-KGK-(Linker)-PTX [Targefrin-dimer-PTX],antitumor effect (tumor volume),"dose equivalent to 2.5 mg/kg PTX (targefrin-PTX 10 mg/kg, targefrin-dimer-PTX 17 mg/kg)",significant antitumor effect compared to both the untreated group and the PTX-treated group
same,antitumor effect (tumor volume),"lower dose 10 mg/kg, equivalent to 1.5 mg/kg PTX",more effective than the PTX-treated group

# Like-named read-outs stand apart in the source and are kept apart here.
